BindingDB's records for doi:10.1073/pnas.89.8.3630 (Synaptic Pharmaceutical, 1992)
Values joined by “and” are separate entries in the source; they are usually repeats but may differ in a detail not shown here. Identical values can stand only once.

Chains of the proteins cited; added tags and fusions are not shown.
UniProt P28222, whole entry: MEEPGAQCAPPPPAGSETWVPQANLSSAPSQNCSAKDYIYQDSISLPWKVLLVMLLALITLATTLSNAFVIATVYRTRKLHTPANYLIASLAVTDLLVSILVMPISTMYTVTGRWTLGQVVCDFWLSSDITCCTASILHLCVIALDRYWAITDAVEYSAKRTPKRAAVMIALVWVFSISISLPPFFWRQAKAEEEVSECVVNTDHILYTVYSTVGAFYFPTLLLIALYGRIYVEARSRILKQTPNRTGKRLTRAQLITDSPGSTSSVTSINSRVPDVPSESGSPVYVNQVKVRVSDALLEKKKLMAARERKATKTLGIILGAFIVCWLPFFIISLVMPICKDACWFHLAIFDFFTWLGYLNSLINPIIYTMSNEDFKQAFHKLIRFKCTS
UniProt Q8MI13, whole entry: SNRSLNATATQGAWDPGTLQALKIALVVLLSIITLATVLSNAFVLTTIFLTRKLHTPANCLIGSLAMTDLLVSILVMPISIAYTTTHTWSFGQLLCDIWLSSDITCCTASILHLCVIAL

Columns and labels:
[1] = molecular target: 5-hydroxytryptamine receptor 1B (Homo sapiens, UniProt P28222)
[2] = molecular target: 5-hydroxytryptamine 1D receptor (Bos taurus, UniProt Q8MI13)

With `COC(=O)[C@@H]1[C@H]2C[C@H]3c4[nH]c5ccccc5c4CCN3C[C@@H]2CC[C@@H]1O` [yohimbic acid methyl ester] the Ki [1] was 16 nM and 22 nM and the Ki [2] was 20 nM.
